Measured values from patent publication EP0810245A1, “Catalyst for low temperature cure of blocked isocyanates” (ELF ATOCHEM NORTH AMERICA, INC., priority 1996, dated 1997).
Read-outs that look alike come from different tables or passages of the source.

[1] = 0.16%Sn, Blocked HDI + Acrylic Polyol + MIBK + MAK
[2] = 0.20 %Sn, Blocked HDI + Acrylic polyol + MIBK + MAK

Row | Substance | COMMENTS (solubility of catalyst) [1] | solubility [1] | solubility [2]
1 | Dibutyl Di Octylmaleate Stannox n=6 [Example 3] | partly soluble after heat | – | –
2 | Dibutyl Diacetoxy Stannox n=3 [Example 1] | soluble on heating | partly soluble on heating | –
3 | Dibutyl Diformyloxy Stannox (n=6) [Example 5] | – | – | partly soluble on heating
4 | Dibutyl Diformyloxy Stannox (n=3) [Example 4] | – | – | soluble
5 | Dibutyl Diacetoxy Stannox n=6 [Example 2] | partly soluble after heat | insoluble | –
6 | Dibutyl Diformyloxy Stannox (n=14) [Example 6] | – | – | sparingly soluble on htg to 70C
